# Measured affinities in a library of Ab-14 light chain variants

Source: Engelhart et al. 2022 (doi:10.1038/s41597-022-01779-4), MIT Lincoln Laboratory and A-Alpha Bio; data file from the FLAb repository.

Target: peptide PDVDLGDISGINAS, taken from heptad repeat 2 (HR2) of SARS-CoV-2 spike.

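Phage display of a naive human antibody library on the peptide gave the parent. In library AAYL50, one, two or three CDR residues were substituted; doubles and triples were drawn at random. The scFvs were displayed on barcoded MATa yeast, the peptide on MATalpha yeast. The frequency of each diploid, read from paired DNA barcodes, reflects how well the two displayed proteins bind. The ratio of observed to expected reads was calibrated, replicate by replicate, on BCL2-family standards whose Kd was known from biolayer interferometry. The assay was run in three technical replicates.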

The variants keep the heavy chain, the linker and the frameworks of Ab-14 (scFv order VH, a 15-residue (Gly4Ser)3 linker, VL).
VH: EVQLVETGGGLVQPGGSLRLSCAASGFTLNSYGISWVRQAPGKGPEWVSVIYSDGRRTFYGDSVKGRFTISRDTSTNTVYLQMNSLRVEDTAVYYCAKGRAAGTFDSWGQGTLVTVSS
VL: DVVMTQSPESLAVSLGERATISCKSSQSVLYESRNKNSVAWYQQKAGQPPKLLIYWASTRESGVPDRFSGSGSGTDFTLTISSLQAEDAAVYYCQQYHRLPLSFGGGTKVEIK

Substitutions are numbered in sequence along the VL above, starting at 1 (not Kabat). Values are log10 of the apparent Kd in nM; lower means stronger binding. Replicates are averaged; those with no signal do not enter the mean. An entry "no signal" has no value in the source: the pair was not observed among the diploids in any replicate. This suggests poor binding but is not conclusive. Background: pairings of library AAYL50 with three empty control strains gave a value in 18% of cases (median 4.19, 5th percentile 2.99). Values in that range, when seen in few replicates, are hard to tell from nonspecific mating. In this assay the parent's reference entry averaged 0.65; its copy inside this library read 1.68.

| changes | log10 Kd (nM), mean | replicates with signal |
|---|---|---|
| S28Q/A57G/H98C | no signal | 0 of 3 |
| V29Y/N35G/P101C | 4.12 | 1 of 3 |
| S25E/W56C/E61H | 2.16 | 2 of 3 |
| E32F/N37T/S58C | no signal | 0 of 3 |
| R60Q/Y97Q/L100A | 4.56 | 1 of 3 |
| Y31K/S33H/V39N | 3.70 | 1 of 3 |
| E32Y/N37D | 1.96 | 3 of 3 |
| Q27L/Y31V/Q95P | 2.84 | 3 of 3 |
| S26P/S28D/N37D | 1.30 | 3 of 3 |
| S26T/V29T/Q96Y | no signal | 0 of 3 |
| S25L/V39L/W56H | -0.24 | 3 of 3 |
| V29Y/S33V/H98S | 1.53 | 3 of 3 |
| S26N/V29N/L30A | 4.04 | 1 of 3 |
| V29H/S58W/Q95V | no signal | 0 of 3 |
| V39Q/Q95Y/P101Q | no signal | 0 of 3 |
| Y31T/T59K/R60K | 4.22 | 2 of 3 |
| V29E/R34C/W56N | 0.50 | 3 of 3 |
| Q27I/Y31K/R99V | 3.38 | 1 of 3 |
| N37T/E61F/L100Q | no signal | 0 of 3 |
| E61R/Y97S | 4.69 | 2 of 3 |
| V29C/R34S/S38A | 0.62 | 3 of 3 |
| K24Y/Q96F/S103Y | no signal | 0 of 3 |
| N37S/A40K/E61A | 5.69 | 1 of 3 |
| K24H/L30T/S33W | 1.23 | 3 of 3 |
| S38I/A40G/H98Y | no signal | 0 of 3 |
| Q27P/N35S/Y97Q | 1.48 | 3 of 3 |
| L30V/A40W/A57C | 4.15 | 1 of 3 |
| S38R/S62A/H98C | 4.84 | 3 of 3 |
| Q27C/R99L/P101E | 2.48 | 3 of 3 |
| A57L/Y97H/L100P | 4.09 | 1 of 3 |
| S38C/A40N/H98L | 2.05 | 3 of 3 |
| W56K/T59H/R60N | 4.68 | 1 of 3 |
| L30S/W56G/R60A | 1.73 | 3 of 3 |
| V29W/S38Q/R60Y | no signal | 0 of 3 |
| N37S/A40P/R60D | no signal | 0 of 3 |
| W56S/T59V/Q95V | 0.30 | 3 of 3 |
| Q27H/H98A/R99M | 0.80 | 3 of 3 |
| V29T/S58W | 6.45 | 1 of 3 |
| L30W/K36S/Y97I | 3.92 | 1 of 3 |
| L30D/T59Q/P101F | no signal | 0 of 3 |
| K24M/S26C/E32C | no signal | 0 of 3 |
| S26Q/V29G/L102F | 0.47 | 3 of 3 |
| R99H/L100K/S103P | no signal | 0 of 3 |
| S38A/T59W | 1.29 | 3 of 3 |
| E32C/S62F/Q95H | no signal | 0 of 3 |
| V39C/R60M/Q95V | 4.68 | 1 of 3 |
| S38I/R60T | 4.18 | 1 of 3 |
| Q27P/R34V/Y97F | 3.31 | 2 of 3 |

From the list, the first 8 with no signal in any replicate:

{"changes": "S28Q/A57G/H98C", "log10 Kd (nM), mean": "no signal", "replicates with signal": "0 of 3"}
{"changes": "E32F/N37T/S58C", "log10 Kd (nM), mean": "no signal", "replicates with signal": "0 of 3"}
{"changes": "S26T/V29T/Q96Y", "log10 Kd (nM), mean": "no signal", "replicates with signal": "0 of 3"}
{"changes": "V29H/S58W/Q95V", "log10 Kd (nM), mean": "no signal", "replicates with signal": "0 of 3"}
{"changes": "V39Q/Q95Y/P101Q", "log10 Kd (nM), mean": "no signal", "replicates with signal": "0 of 3"}
{"changes": "N37T/E61F/L100Q", "log10 Kd (nM), mean": "no signal", "replicates with signal": "0 of 3"}
{"changes": "K24Y/Q96F/S103Y", "log10 Kd (nM), mean": "no signal", "replicates with signal": "0 of 3"}
{"changes": "S38I/A40G/H98Y", "log10 Kd (nM), mean": "no signal", "replicates with signal": "0 of 3"}